Patent US9598416B2, “Substituted benzothienyl-pyrrolotriazines and uses thereof in the treatment cancer” (Bayer Intellectual Property GmbH, priority 2011, dated 2017)

By UniProt entry, the sequences of proteins in these tests, tags left out. Residues count along the entry.
UniProt P22607, 397-806 limits assumed: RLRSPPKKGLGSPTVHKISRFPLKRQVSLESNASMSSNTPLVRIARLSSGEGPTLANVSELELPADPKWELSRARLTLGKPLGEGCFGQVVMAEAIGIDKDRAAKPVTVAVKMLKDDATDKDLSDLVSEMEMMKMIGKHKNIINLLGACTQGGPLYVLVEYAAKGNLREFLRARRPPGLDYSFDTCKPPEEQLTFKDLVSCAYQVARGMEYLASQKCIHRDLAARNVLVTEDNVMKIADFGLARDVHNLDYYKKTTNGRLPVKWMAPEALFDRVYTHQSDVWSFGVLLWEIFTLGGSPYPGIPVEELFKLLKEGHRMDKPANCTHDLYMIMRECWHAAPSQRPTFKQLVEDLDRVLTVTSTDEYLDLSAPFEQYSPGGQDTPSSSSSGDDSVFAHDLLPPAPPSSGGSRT

Biological target: human FGFR-3 (Homo sapiens (Human), UniProt P22607)
Assay: FGFR-3 kinase assay (TR-FRET)
Assay type: biochemical
Conditions: read-out: FGFR-3 IC50

## CCN1CCCC1CNCc1cn2ncnc(N)c2c1-c1cc2cc(C)cc(OC)c2s1 (stereo not shown)
  IC50: 5 nM
